Data set [1] concerns intracellular GSH in HaCaT cells. The experiment in a line: Screening of protective drugs against alkylating agent-induced GSH depletion (mBCL, high-content cell analysis). The following applies: for effect on GSH level in cells: 1 mM protective drug.

As a reminder, the IC50 is the concentration that gives 50% inhibition. For `CCN1C(=O)C=CC1=O`, the cell viability result with HaCaT cells (NEM at 10 μM) is recorded as “more than 95%”. For the same compound, the IC50 in the data set on HaCaT cells (read-out: IC50 (cytotoxicity), 24 h exposure, CCK-8) was 39.8 µM.
For `N[C@@H](CCC(=O)N[C@@H](CS)C(=O)NCC(=O)O)C(=O)O`, the “effect on GSH level in cells” value in data set [1] (HD (120 μM), HaCaT cells) is “effectively increase the GSH level in cells”.
On the same count and under the same terms, for N-acetylcysteine the value was “effectively increase the GSH level in cells”.
For glutathione monoethyl ester, in data set [1] (HD (120 μM), HaCaT cells), the “effect on GSH level in cells” value is listed as “effectively increase the GSH level in cells”. For the same compound, the “concentration at which fluorescence intensity peaked (optimal concentration)” value in data set [1] (HaCaT cells, HD (120 μM), concentration optimisation) was found to be 30 µM. The “fluorescence intensity in cells (intracellular GSH) after adding the protective drug” value in data set [1] (exposure to HD (120 μM), CECM (100 μM), Q (20 μM), HN2 (10 μM)) was “significantly increased”.

The record behind these values is PMC12737281, “In Situ Evaluation of the GSH Depletion Ability of Various Alkylating Agents and the Protective Effect of Several Active Thiol Compounds Based on High-Content Cell Analysis” (2025).
